Paper PMC10354055, “An optimized Nurr1 agonist provides disease-modifying effects in Parkinson’s disease models” (Nature Communications, 2023)

The chains behind the UniProt entries cited, without tags or fusion partners. Residues count along the entry.
UniProt Q06219, 360-595 limits assumed: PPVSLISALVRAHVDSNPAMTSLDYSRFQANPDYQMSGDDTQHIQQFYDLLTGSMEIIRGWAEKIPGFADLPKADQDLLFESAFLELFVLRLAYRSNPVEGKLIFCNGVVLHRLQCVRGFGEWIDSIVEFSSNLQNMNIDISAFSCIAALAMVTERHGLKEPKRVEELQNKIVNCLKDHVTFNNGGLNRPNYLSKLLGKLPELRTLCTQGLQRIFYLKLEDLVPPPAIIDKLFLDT

Molecular target: Nurr1-LBD (Mus musculus, UniProt Q06219)
Test: Luciferase reporter assay, Nurr1-LBD, SK-N-BE(2)C cells
Type: cell-based
Details: Nurr1 activation; for Maximum fold activity: Supplementary Table 1; for EC50: Supplementary Table 1, values in µM

Maximum fold activity [fold] | EC50 [µM] | Compound
4.64 ± 0.21 | 1.32 | Clc1ccc2c(NCCN3CCN(c4ccnc(-n5ccnc5)n4)CC3)ccnc2c1
5.29 ± 0.06 | 1.54 | Cc1cc(N2CCSCC2)nc(N(CCCNc2ccnc3cc(Cl)ccc23)Cc2cccs2)n1
